Values joined by “and” are separate entries in the source; they are usually repeats but may differ in a detail not shown here. Equal values may be shown once.
Key:
Assay in all cases: radiometric filter-binding kinase assay, Kinase HotSpot
Conditions in all cases: compound 0.5 µM; ATP 10 µM
[1] = target: ADRBK1 (human) (UniProt P25098)
[2] = target: AKT2 (human) (UniProt P31751)
[3] = target: AURKB (human) (UniProt Q96GD4)
[4] = target: CAMK2B (human) (UniProt Q13554)
[5] = target: CDC42BPB (human) (UniProt Q9Y5S2)
[6] = target: CSNK1G2 (human) (UniProt P78368)
[7] = target: DYRK4 (human) (UniProt Q9NR20)
[8] = target: EPHA3 (human) (UniProt P29320)
[9] = target: EPHA7 (human) (UniProt Q15375)
[10] = target: FES (human) (UniProt P07332)
[11] = target: GRK6 (human) (UniProt P43250)
[12] = target: GRK7 (human) (UniProt Q8WTQ7)
[13] = target: INSR (human) (UniProt P06213)
[14] = target: LYN (human) (UniProt P07948)
[15] = target: MAP3K10 (human) (UniProt Q02779)
[16] = target: MAP3K3 (human) (UniProt Q99759)
[17] = target: MAP3K8 (human) (UniProt P41279)
[18] = target: MAPK1 (human) (UniProt P28482)
[19] = target: MAPK11 (human) (UniProt Q15759)
[20] = target: MARK3 (human) (UniProt P27448)
[21] = target: MATK (human) (UniProt P42679)
[22] = target: NEK2 (human) (UniProt P51955)
[23] = target: NTRK1 (human) (UniProt P04629)
[24] = target: NTRK2 (human) (UniProt Q16620)
[25] = target: NTRK3 (human) (UniProt Q16288)
[26] = target: PAK4 (human) (UniProt O96013)
[27] = target: PHKG1 (human) (UniProt Q16816)
[28] = target: PIM1 (human) (UniProt P11309)
[29] = target: PRKG2 (human) (UniProt Q13237)
[30] = target: PTK2B (human) (UniProt Q14289)
[31] = target: RAF1 (human) (UniProt P04049)
[32] = target: ROS1 (human) (UniProt P08922)
[33] = target: RPS6KA1 KD1 KD2 (human) (UniProt Q15418)
[34] = target: RPS6KA2 KD1 KD2 (human) (UniProt Q15349)
[35] = target: RPS6KA4 KD2 (human) (UniProt O75676)
[36] = target: RPS6KA5 KD2 (human) (UniProt O75582)
[37] = target: SGK3 (human) (UniProt Q96BR1)
[38] = target: SLK (human) (UniProt Q9H2G2)
[39] = target: SRMS (human) (UniProt Q9H3Y6)
[40] = target: STK25 (human) (UniProt O00506)
[41] = target: TGFBR2 (human) (UniProt P37173)
[42] = target: ULK2 (human) (UniProt Q8IYT8)

Chains of the proteins cited; added tags and fusions are not shown. Lines headed by an entry give the natural chain unless they say otherwise; changes in a name come on top.
UniProt P43250, whole entry, looked up: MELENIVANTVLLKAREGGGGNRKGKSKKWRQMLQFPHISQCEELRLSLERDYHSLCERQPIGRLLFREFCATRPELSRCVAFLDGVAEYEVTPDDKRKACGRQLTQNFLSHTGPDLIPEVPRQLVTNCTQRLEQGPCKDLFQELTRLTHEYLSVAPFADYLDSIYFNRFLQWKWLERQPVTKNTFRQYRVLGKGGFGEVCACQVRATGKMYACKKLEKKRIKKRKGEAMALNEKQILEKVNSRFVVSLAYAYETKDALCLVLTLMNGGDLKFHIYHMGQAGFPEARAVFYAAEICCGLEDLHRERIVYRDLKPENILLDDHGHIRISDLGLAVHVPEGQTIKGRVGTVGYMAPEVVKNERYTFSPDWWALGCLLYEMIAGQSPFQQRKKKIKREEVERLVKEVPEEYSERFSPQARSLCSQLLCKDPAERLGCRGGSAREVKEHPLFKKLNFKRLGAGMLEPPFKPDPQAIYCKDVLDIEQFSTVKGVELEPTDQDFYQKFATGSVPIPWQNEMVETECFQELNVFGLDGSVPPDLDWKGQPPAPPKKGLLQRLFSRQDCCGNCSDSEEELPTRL
UniProt Q02779: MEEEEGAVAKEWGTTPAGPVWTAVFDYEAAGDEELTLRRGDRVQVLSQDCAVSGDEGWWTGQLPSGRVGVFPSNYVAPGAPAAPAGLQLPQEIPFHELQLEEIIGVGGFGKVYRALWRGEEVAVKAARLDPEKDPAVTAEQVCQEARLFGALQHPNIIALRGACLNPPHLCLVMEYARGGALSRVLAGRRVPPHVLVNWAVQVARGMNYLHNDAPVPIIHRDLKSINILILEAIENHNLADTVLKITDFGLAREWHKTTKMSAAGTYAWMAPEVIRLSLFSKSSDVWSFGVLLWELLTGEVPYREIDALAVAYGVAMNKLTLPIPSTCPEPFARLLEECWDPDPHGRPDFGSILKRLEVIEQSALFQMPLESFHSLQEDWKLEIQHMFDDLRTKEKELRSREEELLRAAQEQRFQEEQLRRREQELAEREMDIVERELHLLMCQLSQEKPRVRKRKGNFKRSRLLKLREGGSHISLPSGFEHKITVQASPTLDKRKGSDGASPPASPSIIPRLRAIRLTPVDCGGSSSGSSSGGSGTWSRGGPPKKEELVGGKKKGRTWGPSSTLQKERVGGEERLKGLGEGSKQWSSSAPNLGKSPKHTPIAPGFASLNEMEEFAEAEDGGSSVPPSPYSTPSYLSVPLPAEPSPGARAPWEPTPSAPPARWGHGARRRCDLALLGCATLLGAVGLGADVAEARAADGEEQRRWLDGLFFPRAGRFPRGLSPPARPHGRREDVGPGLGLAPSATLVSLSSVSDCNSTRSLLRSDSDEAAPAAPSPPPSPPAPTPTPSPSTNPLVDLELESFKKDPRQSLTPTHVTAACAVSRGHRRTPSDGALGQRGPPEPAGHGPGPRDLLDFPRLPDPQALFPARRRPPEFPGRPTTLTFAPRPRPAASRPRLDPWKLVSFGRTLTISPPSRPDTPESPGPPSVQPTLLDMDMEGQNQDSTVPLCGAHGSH
UniProt P28482, whole entry, looked up: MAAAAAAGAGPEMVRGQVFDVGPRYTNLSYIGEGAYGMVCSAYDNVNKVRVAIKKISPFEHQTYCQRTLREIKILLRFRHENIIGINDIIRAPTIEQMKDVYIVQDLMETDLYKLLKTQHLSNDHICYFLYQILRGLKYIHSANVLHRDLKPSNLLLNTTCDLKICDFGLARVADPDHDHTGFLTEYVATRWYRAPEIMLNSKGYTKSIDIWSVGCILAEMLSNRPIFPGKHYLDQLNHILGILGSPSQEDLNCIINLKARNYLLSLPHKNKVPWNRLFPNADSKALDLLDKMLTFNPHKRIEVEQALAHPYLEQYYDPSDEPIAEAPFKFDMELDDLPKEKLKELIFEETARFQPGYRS
UniProt P04629: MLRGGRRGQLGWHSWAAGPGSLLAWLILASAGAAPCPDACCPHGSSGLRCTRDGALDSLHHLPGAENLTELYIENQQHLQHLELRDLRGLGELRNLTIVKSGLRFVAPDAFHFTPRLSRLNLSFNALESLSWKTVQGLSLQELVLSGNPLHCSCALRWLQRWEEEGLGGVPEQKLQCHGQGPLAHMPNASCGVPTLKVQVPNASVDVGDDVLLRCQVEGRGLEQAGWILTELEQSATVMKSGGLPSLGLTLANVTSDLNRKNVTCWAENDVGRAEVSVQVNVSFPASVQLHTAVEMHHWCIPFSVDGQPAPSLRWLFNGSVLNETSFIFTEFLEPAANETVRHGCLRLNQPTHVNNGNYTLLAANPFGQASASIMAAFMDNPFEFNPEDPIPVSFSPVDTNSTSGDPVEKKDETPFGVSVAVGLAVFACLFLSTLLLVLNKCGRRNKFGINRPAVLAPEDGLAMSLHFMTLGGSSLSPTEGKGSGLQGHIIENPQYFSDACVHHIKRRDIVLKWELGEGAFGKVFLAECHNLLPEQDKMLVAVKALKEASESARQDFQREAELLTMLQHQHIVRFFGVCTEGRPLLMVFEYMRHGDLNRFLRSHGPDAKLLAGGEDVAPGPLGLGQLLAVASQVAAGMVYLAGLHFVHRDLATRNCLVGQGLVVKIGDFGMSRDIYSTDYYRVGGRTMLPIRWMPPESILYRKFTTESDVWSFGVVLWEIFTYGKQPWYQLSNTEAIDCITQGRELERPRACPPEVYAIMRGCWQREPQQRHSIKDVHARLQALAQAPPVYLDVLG
UniProt Q16620, whole entry, looked up: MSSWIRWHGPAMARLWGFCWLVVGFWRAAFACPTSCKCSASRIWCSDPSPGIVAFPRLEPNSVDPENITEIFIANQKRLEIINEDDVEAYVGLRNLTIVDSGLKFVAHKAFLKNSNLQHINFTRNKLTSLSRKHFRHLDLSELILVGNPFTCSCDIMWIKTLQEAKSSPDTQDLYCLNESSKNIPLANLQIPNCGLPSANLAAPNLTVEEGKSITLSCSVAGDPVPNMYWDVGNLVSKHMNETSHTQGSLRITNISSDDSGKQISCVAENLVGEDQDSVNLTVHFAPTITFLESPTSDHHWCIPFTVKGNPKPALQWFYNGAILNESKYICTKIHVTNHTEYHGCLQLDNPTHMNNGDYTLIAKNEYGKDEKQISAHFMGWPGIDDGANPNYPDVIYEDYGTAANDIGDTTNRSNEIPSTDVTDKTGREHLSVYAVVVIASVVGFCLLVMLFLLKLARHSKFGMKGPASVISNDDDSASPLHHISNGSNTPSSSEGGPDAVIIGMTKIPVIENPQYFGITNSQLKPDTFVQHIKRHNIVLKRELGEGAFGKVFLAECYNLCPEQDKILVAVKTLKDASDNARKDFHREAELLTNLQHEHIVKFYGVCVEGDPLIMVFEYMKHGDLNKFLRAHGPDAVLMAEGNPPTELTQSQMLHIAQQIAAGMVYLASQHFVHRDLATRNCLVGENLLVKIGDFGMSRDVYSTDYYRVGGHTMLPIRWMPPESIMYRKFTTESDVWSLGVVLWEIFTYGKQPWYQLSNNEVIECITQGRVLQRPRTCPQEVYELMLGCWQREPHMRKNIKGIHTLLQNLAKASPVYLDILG
UniProt Q15418, whole entry, looked up: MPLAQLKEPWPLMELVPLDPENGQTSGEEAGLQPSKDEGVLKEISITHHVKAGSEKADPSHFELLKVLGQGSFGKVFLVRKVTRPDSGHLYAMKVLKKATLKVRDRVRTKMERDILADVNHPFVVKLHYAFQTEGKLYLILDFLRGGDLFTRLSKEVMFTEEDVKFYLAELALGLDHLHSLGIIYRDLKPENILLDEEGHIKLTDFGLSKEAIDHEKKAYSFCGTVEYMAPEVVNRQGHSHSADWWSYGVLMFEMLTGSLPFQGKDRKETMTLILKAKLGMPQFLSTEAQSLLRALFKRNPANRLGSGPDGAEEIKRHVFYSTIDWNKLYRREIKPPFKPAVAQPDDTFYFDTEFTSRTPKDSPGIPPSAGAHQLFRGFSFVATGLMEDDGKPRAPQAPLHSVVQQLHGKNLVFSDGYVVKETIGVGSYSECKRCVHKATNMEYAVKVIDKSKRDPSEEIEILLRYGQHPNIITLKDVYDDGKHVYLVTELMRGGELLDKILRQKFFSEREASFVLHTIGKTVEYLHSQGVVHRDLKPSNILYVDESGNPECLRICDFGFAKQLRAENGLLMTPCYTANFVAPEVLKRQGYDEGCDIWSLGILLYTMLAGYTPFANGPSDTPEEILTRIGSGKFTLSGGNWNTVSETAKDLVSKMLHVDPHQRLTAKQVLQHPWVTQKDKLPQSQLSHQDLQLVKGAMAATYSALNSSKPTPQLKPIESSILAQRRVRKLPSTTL
UniProt Q96BR1: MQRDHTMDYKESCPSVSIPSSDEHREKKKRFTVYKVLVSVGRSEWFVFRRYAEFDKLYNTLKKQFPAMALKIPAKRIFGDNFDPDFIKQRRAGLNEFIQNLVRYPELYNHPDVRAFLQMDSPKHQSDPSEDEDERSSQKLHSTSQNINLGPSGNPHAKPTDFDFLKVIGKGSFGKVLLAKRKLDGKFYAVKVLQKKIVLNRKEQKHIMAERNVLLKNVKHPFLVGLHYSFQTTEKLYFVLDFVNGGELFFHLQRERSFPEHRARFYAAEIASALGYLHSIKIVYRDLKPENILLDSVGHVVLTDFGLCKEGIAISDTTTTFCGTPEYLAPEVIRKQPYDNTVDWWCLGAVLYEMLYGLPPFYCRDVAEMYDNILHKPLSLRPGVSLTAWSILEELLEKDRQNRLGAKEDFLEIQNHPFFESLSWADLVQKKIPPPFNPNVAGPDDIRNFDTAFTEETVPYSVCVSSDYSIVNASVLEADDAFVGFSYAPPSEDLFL
UniProt Q9H2G2: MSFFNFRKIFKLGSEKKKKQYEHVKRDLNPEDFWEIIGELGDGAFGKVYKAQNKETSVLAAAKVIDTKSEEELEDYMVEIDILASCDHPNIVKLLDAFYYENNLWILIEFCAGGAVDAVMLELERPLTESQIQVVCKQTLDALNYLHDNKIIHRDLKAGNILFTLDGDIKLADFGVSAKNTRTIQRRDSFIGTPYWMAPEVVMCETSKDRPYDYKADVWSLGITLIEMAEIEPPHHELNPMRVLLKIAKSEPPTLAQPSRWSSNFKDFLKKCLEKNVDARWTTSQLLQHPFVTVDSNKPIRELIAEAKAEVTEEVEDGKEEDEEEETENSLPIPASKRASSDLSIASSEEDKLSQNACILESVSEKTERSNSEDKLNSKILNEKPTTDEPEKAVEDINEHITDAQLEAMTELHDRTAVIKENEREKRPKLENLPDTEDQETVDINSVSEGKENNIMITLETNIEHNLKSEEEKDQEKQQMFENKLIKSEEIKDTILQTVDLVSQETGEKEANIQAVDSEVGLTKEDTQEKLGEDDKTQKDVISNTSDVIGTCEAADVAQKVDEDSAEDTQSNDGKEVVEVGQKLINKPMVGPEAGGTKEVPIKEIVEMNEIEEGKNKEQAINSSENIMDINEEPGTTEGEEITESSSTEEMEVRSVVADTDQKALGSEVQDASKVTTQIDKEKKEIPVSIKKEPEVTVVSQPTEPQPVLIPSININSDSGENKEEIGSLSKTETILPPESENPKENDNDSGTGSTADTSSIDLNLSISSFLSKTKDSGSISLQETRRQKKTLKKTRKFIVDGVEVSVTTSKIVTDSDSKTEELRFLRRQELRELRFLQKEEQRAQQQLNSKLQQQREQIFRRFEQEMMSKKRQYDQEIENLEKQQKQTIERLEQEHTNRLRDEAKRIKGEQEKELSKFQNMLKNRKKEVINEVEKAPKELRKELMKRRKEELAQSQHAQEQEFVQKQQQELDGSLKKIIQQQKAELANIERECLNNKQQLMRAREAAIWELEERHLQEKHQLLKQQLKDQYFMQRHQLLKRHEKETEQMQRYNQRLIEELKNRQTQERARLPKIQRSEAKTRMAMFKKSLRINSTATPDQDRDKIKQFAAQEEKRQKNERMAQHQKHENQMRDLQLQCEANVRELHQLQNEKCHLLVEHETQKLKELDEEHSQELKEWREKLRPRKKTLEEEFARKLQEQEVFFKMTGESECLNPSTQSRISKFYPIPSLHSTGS
UniProt P37173, whole entry, looked up: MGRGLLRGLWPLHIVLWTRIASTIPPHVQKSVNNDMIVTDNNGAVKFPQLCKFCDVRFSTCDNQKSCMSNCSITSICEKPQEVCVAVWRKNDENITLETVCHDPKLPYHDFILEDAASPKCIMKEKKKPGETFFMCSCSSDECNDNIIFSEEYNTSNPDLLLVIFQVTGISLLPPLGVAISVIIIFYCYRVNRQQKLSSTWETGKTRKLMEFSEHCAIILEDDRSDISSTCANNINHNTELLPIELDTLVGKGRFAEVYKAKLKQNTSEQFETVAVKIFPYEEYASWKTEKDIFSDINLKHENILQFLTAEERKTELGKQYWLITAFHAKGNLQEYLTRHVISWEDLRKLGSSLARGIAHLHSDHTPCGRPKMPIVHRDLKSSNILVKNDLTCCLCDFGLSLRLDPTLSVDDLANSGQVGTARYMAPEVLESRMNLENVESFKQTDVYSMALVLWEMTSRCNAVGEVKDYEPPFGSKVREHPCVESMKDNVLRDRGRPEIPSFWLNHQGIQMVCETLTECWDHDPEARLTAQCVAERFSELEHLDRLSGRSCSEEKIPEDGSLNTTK

CO[C@H]1[C@@H](OC)C[C@H](C)[C@@H](OC)C2=CC(=O)C=C(NC(=O)/C(C)=C\C=C/[C@H](OC)[C@@H](OC(N)=O)/C(C)=C\[C@@H]1C)C2=O showed a residual activity [1] of 95.7%, a residual activity [2] of 94.4% and a residual activity [3] of 93.6%. The residual activity [4] was 100%, the residual activity [5] was 101% and the residual activity [6] was 97.5%. It also gave a residual activity [7] of 94%, a residual activity [8] of 98% and a residual activity [9] of 102%. It also gave a residual activity [10] of 96%, a residual activity [11] of 106% and a residual activity [12] of 103%. The residual activity [13] was 95.6%, the residual activity [14] was 101% and 109% and the residual activity [15] was 101%. For the same compound, the residual activity [16] was 103%, the residual activity [17] was 98% and the residual activity [18] was 94.4%. It also gave a residual activity [19] of 95.9%, a residual activity [20] of 112% and a residual activity [21] of 95.1%. The residual activity [22] was 102%, the residual activity [23] was 92.3% and the residual activity [24] was 94%. For the same compound, the residual activity [25] was 117%, the residual activity [26] was 109% and the residual activity [27] was 100%. It also gave a residual activity [28] of 98.8%, a residual activity [29] of 98.2% and a residual activity [30] of 104%. For the same compound, the residual activity [31] was 92.7%, the residual activity [32] was 91.9% and the residual activity [33] was 76.8%. For the same compound, the residual activity [34] was 94.2%, the residual activity [35] was 96.7% and the residual activity [36] was 98.2%. The residual activity [37] was 102%, the residual activity [38] was 97.1% and the residual activity [39] was 95.8%. For the same compound, the residual activity [40] was 99%, the residual activity [41] was 128% and the residual activity [42] was 107%.
